Like-named read-outs stand apart in the source and are kept apart here.
Experiments:
[1] = target: CB2 receptor (Mus musculus, UniProt P47936); experiment: CB2 receptor binding, mouse spleen membranes, same manner as the CB1 binding assay; conditions: for selectivity CB2: ratio of CB1 Ki to CB2 Ki; for Ki: read-out: affinities Ki CB2, mouse spleen membranes, [3H] CP-55,940
[2] = target: CB1 cannabinoid receptor (Rattus norvegicus, UniProt P20272); experiment: CB1 receptor binding, rat forebrain membranes, [3H] CP-55,940 displacement
[3] = read-out: affinities Ki CB1, 0.8 nM [3H] CP-55,940

Amino acid sequences for entries named in this document (tags omitted).
UniProt P47936, whole entry: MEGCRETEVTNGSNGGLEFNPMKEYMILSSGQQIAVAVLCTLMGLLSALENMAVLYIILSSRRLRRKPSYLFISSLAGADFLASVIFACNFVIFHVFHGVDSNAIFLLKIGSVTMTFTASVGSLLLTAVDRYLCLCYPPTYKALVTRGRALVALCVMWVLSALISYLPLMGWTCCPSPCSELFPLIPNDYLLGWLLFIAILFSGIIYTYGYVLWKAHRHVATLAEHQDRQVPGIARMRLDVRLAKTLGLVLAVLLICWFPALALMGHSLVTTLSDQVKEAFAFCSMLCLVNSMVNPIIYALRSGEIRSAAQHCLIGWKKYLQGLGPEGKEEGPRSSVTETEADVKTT
UniProt P20272, whole entry: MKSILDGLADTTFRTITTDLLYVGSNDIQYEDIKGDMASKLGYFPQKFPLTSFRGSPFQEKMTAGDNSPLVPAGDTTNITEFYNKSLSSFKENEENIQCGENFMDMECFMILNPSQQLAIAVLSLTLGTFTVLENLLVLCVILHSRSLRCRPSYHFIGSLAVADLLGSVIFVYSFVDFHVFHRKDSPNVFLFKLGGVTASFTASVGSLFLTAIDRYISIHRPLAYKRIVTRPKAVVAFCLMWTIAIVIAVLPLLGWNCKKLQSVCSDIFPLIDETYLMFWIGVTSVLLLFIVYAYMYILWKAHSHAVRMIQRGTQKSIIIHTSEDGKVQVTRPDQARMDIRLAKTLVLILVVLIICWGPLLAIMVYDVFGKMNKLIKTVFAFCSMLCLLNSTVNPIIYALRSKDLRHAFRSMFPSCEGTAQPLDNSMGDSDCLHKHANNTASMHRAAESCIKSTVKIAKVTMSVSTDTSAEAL

SMILES	selectivity CB2 [1]	Ki [1] [nM]	Ki ([1]; listed as 12) [nM]	Ki [2, 3] [nM]	Ki ([2]; read-out: affinities Ki CB1, 0.8 nM [3H] CP-55,940, listed as 12) [nM]	Ki ([1]; listed as 9) [nM]	Ki ([2]; read-out: affinities Ki CB1, 0.8 nM [3H] CP-55,940, listed as 9) [nM]
Cc1c(C(=O)NC23CC4CC(CC(C4)C2)C3)nn(CCCCCN=C=S)c1-c1ccccc1	11.6	0.5	0.507	5.8	5.76		
Cc1c(C(=O)NC23CC4CC(CC(C4)C2)C3)nn(CCCCCF)c1-c1ccccc1	1.7	0.7		1.2		0.682	1.25
